Measurements reported in publication PMC12302720 (The Journal of Biological Chemistry, 2025).
Residue numbers refer to the chain shown, from its start. Values belong to the binder of their own block, whether it stands above or below them.

By UniProt entry, the sequences of proteins in these tests, tags left out.
UniProt A0A2K5X4I2, entry or part of it: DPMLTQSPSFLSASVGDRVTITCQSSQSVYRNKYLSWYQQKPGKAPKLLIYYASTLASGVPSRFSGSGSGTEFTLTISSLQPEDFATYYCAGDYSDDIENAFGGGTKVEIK

Columns and labels:
[1] = biological target: T1, extracellular domain of human CD47 (HuCD47 ECD) (human, UniProt Q08722); experiment: BLI; Octet Red96; 5 ug/ml antibody held on anti-human IgG-Fc biosensors; 2-fold dilutions of HuCD47 ECD or CyCD47 ECD in 1 x PBS, 0.1% BSA, 0.02% Tween-20; 1:1 Langmuir global fit; apparent Kd; conditions: both partners purified
T1 construct: human CD47 extracellular domain, amino acids Gln1-Pro121; source: bought: Acro Biosystems; not shown: His6, C-terminal, kept

[2] = biological target: T2, extracellular domain of cynomolgus CD47 (CyCD47 ECD) (Macaca fascicularis, UniProt A0A2K5X4I2); experiment: as above; conditions: both partners purified
T2 construct: cynomolgus CD47 extracellular domain; source: bought: Acro Biosystems

[3] = biological target: T1, extracellular domain of human CD47 …; experiment: ELISA; plates coated with 1 ug/ml HuCD47 ECD or CyCD47 ECD in 0.1 M PBS; serially diluted antibodies, 37 °C, 2 h; bound antibody detected with anti-human Fc HRP; conditions: both partners purified
[4] = biological target: T2, extracellular domain of cynomolgus CD47 …; experiment: as above; conditions: both partners purified
[5] = biological target: T3, CD47 on the surface of human cells (Homo sapiens, UniProt Q08722); experiment: flow cytometry on cells; serially diluted antibodies on tumor cells (CCRF-CEM, Raji), 4 °C, 30 min; FITC anti-human IgG; conditions: one partner purified
T3 construct: human CD47, endogenous on the cell surface; also called CD47 on CCRF-CEM cells; CD47 on Raji cells; source: endogenous, on CCRF-CEM, Raji, HAEC and RPTEC cells and human RBCs

fold lower binding affinity than 1C8 [1]: 3 fold
B1: H3L1, humanized variant of 1C8 (antibody, V domains shown)
VH: QSVKESGGGLFQPGGSLRLSCSVSGFSLSSYAISWVRQAPGKGLEYIGYISSIGDPYYADWVKGRFTISRDSSTVYLQMTSLRAEDTAVYFCARSYPGNGDLGRLDIWGQGTTVTVSS
VL: DIQLTQSPSFLSASVGDRVTITCQSSQSVYRNKYLSWYQQKPGKAPKLLIYYASTLASGVPSRFSGSGSGTEFTLTISSLQPEDFATYYCAGDYSDDIENAFGQGTKVEIK

binding result [2]: binds
B2: Hu1C8, humanized anti-CD47 monoclonal antibody (antibody, V domains shown)
VH: B1 VH
VL: B1 VL with I2P, Q3M, Q104G

binding result [3]: binds
binding result [4]: binds
binding result [5]: binds
B3: 1C8, rabbit-derived anti-CD47 monoclonal antibody (rabbit variable regions on human IgG4PE and Igκ) (antibody, V domains shown)
VH: QSVKESEGGLFKPTDTLTLTCTVSGFSLSSYAISWVRQAPGKGLEYIGYISSIGDPYYASWVNGRFTISRTSSTVTLKMTSLTAADTATYFCARSYPGNGDLGRLDIWGQGTLVTVSS
VL: DPMLTQTPSPVSAAVGGTVSISCQSSQSVYRNKYLSWYQQKPGQPPKLLIYYASTLASGVPSRFKGSGSGTQFTLTISDVQCDDAATYYCAGDYSDDIENAFGGGTEVVVK
